Molecular target: BRDT-BD1 (Homo sapiens, UniProt Q58F21)
Test: AlphaScreen competition assay with biotinylated JQ1, BRDT-BD1
Assay type: binding
Settings: read-out: BRDT IC50, nM BD1, biotinylated JQ1 as ligand, NE: no effect at 20 µM

CNC(=O)[C@@H](CC1CCN(C(=O)Cc2ccc3[nH]c(=O)cc(C)c3c2)CC1)NC(=O)c1ccc(-c2ccc(C)cc2C)cn1
IC50: 2 nM
